Test results: US9434711B2 (Janssen Pharmaceutica, NV, priority 2007, dated 2016)

Amino acid sequences for entries named in this document (tags omitted). Residues count along the entry.
UniProt Q1A7N1, 1-1104: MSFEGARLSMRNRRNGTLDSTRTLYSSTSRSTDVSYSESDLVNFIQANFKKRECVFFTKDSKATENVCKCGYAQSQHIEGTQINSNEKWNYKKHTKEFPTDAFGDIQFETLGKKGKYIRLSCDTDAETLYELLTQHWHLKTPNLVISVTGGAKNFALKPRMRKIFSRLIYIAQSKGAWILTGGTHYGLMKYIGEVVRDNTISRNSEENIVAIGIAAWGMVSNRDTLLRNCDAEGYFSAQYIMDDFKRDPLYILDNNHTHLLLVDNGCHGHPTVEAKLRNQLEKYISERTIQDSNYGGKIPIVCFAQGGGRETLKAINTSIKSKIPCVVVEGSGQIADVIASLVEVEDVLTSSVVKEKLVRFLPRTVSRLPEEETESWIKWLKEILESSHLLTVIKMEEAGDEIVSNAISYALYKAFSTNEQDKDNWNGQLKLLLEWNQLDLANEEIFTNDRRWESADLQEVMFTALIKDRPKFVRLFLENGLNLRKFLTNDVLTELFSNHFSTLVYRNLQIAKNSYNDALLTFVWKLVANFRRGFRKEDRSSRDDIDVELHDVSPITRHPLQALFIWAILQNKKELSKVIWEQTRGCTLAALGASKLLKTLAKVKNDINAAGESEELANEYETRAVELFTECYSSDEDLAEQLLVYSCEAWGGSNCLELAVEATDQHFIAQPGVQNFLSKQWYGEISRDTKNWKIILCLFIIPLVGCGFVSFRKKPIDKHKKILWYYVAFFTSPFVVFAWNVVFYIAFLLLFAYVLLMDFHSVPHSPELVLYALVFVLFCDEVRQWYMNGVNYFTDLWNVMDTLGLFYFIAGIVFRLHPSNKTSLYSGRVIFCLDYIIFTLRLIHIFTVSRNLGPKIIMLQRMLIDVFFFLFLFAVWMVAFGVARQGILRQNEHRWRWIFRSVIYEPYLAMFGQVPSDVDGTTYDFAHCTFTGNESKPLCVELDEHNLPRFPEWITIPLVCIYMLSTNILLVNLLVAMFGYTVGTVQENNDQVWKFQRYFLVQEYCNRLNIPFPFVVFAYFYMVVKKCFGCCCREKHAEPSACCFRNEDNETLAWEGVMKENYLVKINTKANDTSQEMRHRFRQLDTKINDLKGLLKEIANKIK

Target: canine TRPM8 (Canis lupus familiaris, UniProt Q1A7N1)
Test: In Vitro Canine TRPM8 Functional Assay (Ca2+ fluorescence, icilin activation)
Format: cell-based
Conditions: HEK293 cells stably expressing canine TRPM8, eight-point dose-response
Method: The functional activity of compounds of the formula (I) was determined by measuring changes in intracellular calcium concentration using a Ca^2+-sensitive fluorescent dye. The changes in fluorescent signal were monitored by a fluorescence plate reader, either a FLIPR™ (Molecular Devices) or FDSS (Hamamatsu). Increases in intracellular Ca^2+ concentration were readily detected upon activation with icilin.
At 24 hrs prior to assay, HEK293 cells stably expressing canine TRPM8 were seeded in culture medium in black wall, clear-base poly-D-lysine coated 384-well plates (BD Biosciences, NJ, USA) and grown overnight in 5% CO2 at 37° C. On assay day, growth media was removed and cells were loaded with Calcium 3 Dye (Molecular Devices) for 35 min at 37° C., under 5% CO2 and then for 25 min at room temperature and atmosphere. Subsequently, cells were tested for agonist-induced increases in intracellular Ca^2+ levels using FLIPR™ or FDSS. Cells were challenged with a compound of the Formula (I) (at varying concentrations) and intracellular Ca^2+ was measured for 5 min prior to the addition of icilin to all wells to achieve a final concentration that produces approximately an 80% maximal response. EC50 or IC50 values for compounds of the present invention were determined from eight-point dose-response studies. Curves were generated using the average of quadruplicate wells for each data point.

Structure (SMILES) | IC50 [nM]
CCCCN(c1cc2ccccc2s1)S(=O)(=O)c1ccccc1 [Compound 117, N-(Benzo[b]thiophen-2-yl)-N-(butyl)-benzenesulfonamide] | 53.7
COC(=O)[C@@H](C)CN(c1sc2ccccc2c1Br)S(=O)(=O)c1ccccc1 [Compound 244, N-(3-Bromo-benzo[b]thiophen-2-yl)-N-[2(S)-methyl-2-carbomethoxy-ethyl]-benzenesulfonamide] | 12.2
COC(=O)[C@H](C)CN(c1sc2ccccc2c1Br)S(=O)(=O)c1ccccc1 [Compound 245, N-(3-Bromo-benzo[b]thiophen-2-yl)-N-[2(R)-methyl-2-carbomethoxy-ethyl]-benzenesulfonamide] | 14.2
O=C(O)c1ccc(S(=O)(=O)N(CCC(F)(F)F)c2sc3ccccc3c2Br)cc1 [Compound 271, N-(3-Bromo-benzo[b]thiophen-2-yl)-N-(3,3,3-trifluoro-propyl)-4-carboxy-benzenesulfonamide] | 11.7
Cc1c(N(CCCCC(F)(F)F)S(=O)(=O)CC(F)(F)F)sc2ccccc12 [Compound 673, N-(3-Methyl-benzo[b]thiophen-2-yl)-N-(5,5,5-trifluoro-pentyl)-2,2,2-trifluoro-ethanesulfonamide] | 73.8
Cc1c(N(Cc2ccc(OC(F)(F)F)cc2)S(=O)(=O)c2nc3ccccc3[nH]2)sc2ccccc12 [Compound 729, N-(3-Methyl-benzo[b]thiophen-2-yl)-N-(4-trifluoromethoxy-benzyl)-1H-benzimidazole-2-sulfonamide] | 96.2
